Here are results for 1 molecule from BindingDB's records for 39563830, “Novel Aminopyrazole Inhibitors of PDE11A for the Treatment of Alzheimer's Disease and Other Types of Dementia”.

By UniProt entry, the sequences of proteins in these tests, tags left out. Where a name states a change or a piece, a line headed by the entry shows the natural chain unless it says otherwise.
UniProt Q9HCR9: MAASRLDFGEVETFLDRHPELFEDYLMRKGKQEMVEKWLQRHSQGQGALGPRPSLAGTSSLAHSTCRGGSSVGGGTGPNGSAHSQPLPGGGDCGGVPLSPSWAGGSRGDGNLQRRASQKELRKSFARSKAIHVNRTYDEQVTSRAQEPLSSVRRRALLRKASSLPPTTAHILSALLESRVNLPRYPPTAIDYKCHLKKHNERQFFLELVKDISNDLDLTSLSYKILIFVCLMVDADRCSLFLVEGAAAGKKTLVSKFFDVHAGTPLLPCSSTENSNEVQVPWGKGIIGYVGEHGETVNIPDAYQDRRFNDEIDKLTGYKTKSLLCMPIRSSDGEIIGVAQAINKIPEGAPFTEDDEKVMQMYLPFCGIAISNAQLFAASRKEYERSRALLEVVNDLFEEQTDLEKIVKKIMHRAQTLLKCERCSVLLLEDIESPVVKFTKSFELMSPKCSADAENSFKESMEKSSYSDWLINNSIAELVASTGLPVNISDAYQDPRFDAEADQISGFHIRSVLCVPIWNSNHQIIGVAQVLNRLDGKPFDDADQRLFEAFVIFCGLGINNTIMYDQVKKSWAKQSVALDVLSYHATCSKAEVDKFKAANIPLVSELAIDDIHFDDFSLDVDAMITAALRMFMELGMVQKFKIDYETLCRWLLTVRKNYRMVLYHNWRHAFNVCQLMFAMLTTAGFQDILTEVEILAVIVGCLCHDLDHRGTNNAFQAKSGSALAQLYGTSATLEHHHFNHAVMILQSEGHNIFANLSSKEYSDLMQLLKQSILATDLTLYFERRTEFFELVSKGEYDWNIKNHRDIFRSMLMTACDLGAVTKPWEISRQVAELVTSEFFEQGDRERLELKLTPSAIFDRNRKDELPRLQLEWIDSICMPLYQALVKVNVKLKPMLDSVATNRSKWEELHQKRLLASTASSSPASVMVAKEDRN

The target in this test is Dual 3',5'-cyclic-AMP and -GMP phosphodiesterase 11A (Homo sapiens, UniProt Q9HCR9).

A word on the IC50: it is the concentration needed to halve the response being measured. Low values mean inhibition by little substance, high ones a need for much substance. Molecule `CCN(CC)C(=O)c1cc(-c2nccs2)nc2c1c(C)nn2-c1ccccc1` showed an IC50 of 895 nM.
